{"source": "patent US20240075049A1", "about": "(priority 2020, published 2024)", "origin": "cited, not measured here", "settings": "in both animals and humans; binds to or is absorbed by adipose tissue; cited from earlier work", "data": [{"substance": "ivermectin", "values": [{"measurement": "lipophilicity", "value": "highly lipophilic"}]}]}
